Results on three substances are retold here after patent publication US10596172B2 (dated 2020).

This experiment addresses EGFR-WT (Homo sapiens (Human), UniProt P00533). Kind of experiment: Omnia assay for potency assessment against EGFR (WT). To be noted: read-out: EGFR Wild Type Inhibition.
“N-(3-(5-fluoro-2-(3-(2-(2-oxopyrrolidin-1-yl)ethoxy)phenylamino)pyrimidin-4-ylamino)phenyl)acrylamide [Compound I-164]”: the IC50 lay in the range of 0.01 to 0.1 µM.

Take “N-(3-(5-fluoro-2-(3-(2-(2-oxopyrrolidin-1-yl)ethoxy)phenylamino)pyrimidin-4-yloxy)phenyl)acrylamide [Compound I-184]”: the IC50 is under 0.01 µM.

With “N-(3-(5-fluoro-2-(4-(3-methylsulfonylpropoxy)phenyl)aminopyrimidin-4-ylamino)phenyl)acrylamide [Compound I-97]”, the IC50 lay within 0.01 to 0.1 µM.
